{
  "source": "patent US20160158161A1",
  "key": {"[1]": {"conditions": "oral; cited from earlier work"}, "[2]": {"experiment": "migration of fentanyl into the carrier film on storage"}, "[3]": {"experiment": "stability of fentanyl in acrylate copolymer adhesives / stress storage", "conditions": "stress storage one month at 40° C./75% relative humidity; crosslinking agent added in presence of fentanyl"}},
  "note": "Some compounds may have been tested in ways that are not shown here.",
  "data": [
    {"compound": "CCC(=O)N(c1ccccc1)C1CCN(CCc2ccccc2)CC1", "values": [
      {"measurement": "bioavailability", "setting": "[1]", "result": "< 10", "unit": "%"},
      {"measurement": "active substance migrated into the carrier film", "setting": "[2]; PE film, less than one month at 40° C./75% relative humidity", "result": "8-10%"},
      {"measurement": "migration of active substance into the carrier film", "setting": "[2]; PET (polyester) film", "result": "No migration was observed"},
      {"measurement": "amount of impurity D (European Pharmacopeia) formed, based on fentanyl", "setting": "[3]", "result": "about 1%"}
    ]}
  ]
}
